According to US20150306241A1, “COPOLYMERS FOR THE DELIVERY OF DRUGS INTO CELLS” (published 2015):

Experiments:
[1] = In vivo side toxicity assessment; details: 5 mg/Kg PTX twice a week for 4 weeks, end of experiment
[2] = In vitro drug release by dialysis, RP-HPLC; details: dialysis for 24 h at 37° C., 1M sodium salicylate, PTX/methanol/water mixture
A549 cells = assay: Apoptosis analysis by FACS, Annexin V/Propidium Iodide double staining; details: A549, 29.5 ng/mL for 72 h

For paclitaxel, the “white blood cell counts” value [1] was “around 30 % of the HBSS group”, the “PTX released from the dialysis tube” value [2] was “about 48%” and the “necrotic/dead cells (PI positive only)” value (A549 cells) was 17.1%. The “percentage of early apoptotic cells (Annexin positive only)” value (A549 cells) was 2.8%, the “percentage of late apoptotic cells (both Annexin and PI positive)” value (A549 cells) was 10.4% and the “percentage of viable cells” value (A549 cells) was 69.7%.
